This data set concerns H322M cells. Briefly: CytoTox-Glo assay of peptides and DIG-modified variants. It is filed as cell-based, human. The note with it: 48 hours. The protocol: To evaluate whether additions or alterations of the peptide Melittin, FALLv1 and FALLv2 by digoxygenin alters its biological activity, we performed in vitro assays. As these peptides are cytotoxic, their biological activity can easily be analyzed by monitoring the number of dead cells. To measure this number, the CytoTox-Glo assay (Promega Madison, Wis.) was used.
For these assays, H322M cells were seeded at a density of 15.000 cells per well in 96 well plates. The cells were incubated for 24 hours at 37° C., 5% CO2 and 85% humidity in RPMI with 10% FCS, Na+Pyrovate, L-Glutamine and NEAA mix. The peptide and it's DIG-modified variant were then added to the cells in the concentrations indicated. The cells were incubated for further 48 hours. After this period, the cells were treated with the CytoTox-Glo-assay reagent according to the manufacturers instructions. In brief, this assay detects dead cells via the presence of a protease in the medium that cleaves a fluorogenic peptide in the reagent. The luminescence of this assay therefore represents dead cells. The 96 well plates were then analyzed in a InfiniteF200 luminescence reader (Tecan Austria, Gröding).

The structures appear in SMILES notation. Like-named read-outs stand apart in the source and are kept apart here.

One may read the IC50 as the concentration needed to halve the response being measured. With `CC[C@H](C)[C@H](NC(=O)CN)C(=O)NCC(=O)N[C@@H](C)C(=O)N[C@H](C(=O)N[C@@H](CC(C)C)C(=O)N[C@@H](CCCCN)C(=O)N[C@H](C(=O)N[C@@H](CC(C)C)C(=O)N[C@H](C(=O)N[C@H](C(=O)NCC(=O)N[C@@H](CC(C)C)C(=O)N1CCC[C@H]1C(=O)N[C@@H](C)C(=O)N[C@@H](CC(C)C)C(=O)N[C@H](C(=O)N[C@@H](CO)C(=O)N[C@@H](Cc1c[nH]c2ccccc12)C(=O)N[C@H](C(=O)N[C@@H](CCCCN)C(=O)N[C@@H](CCCNC(=N)N)C(=O)N[C@@H](CCCCN)C(=O)N[C@@H](CCCNC(=N)N)C(=O)N[C@@H](CCC(N)=O)C(=O)N[C@@H](CCC(N)=O)C(N)=O)[C@@H](C)CC)[C@@H](C)CC)[C@@H](C)O)[C@@H](C)O)C(C)C)C(C)C` [Melittin], the IC50 (read-out: IC50 value of the CytoTox-Glo assay) was 3.28 µM and the IC50 (CytoTox-Glo, read-out: IC50 unmodified peptide) was 3.3 µM.

Values taken from patent publication US9050375B2, “Bi-specific digoxigenin binding antibodies” (priority 2009, dated 2015).
